Legend:
TYK2 pseudokinase domain = TYK2 pseudokinase domain (Homo sapiens, UniProt P29597); assay: TYK2 JH2 pseudokinase domain binding affinity, fluorescence polarization (BPS Bioscience inhibitor screening kit); details: read-out: TYK2 JH2 IC50; polarized fluorescence, 25°C, 1 hour
Experimental: Experimental Example 1: Analysis of domain binding affinity to TYK2 pseudokinase
In order analyze the binding affinity of a test compound to the TYK2 pseudokinase domain, a polarized fluorescence-based TYK2 JH2 Pseudokinase Domain Inhibitor Screening Assay Kit (BPS bioscience) was used. The evaluation of the compound was performed according to the manufacturer's protocol, and the method thereof is as follows:
The test compound or control compound (Deucravacitnib) was serially diluted in DMSO, and then diluted 1/10 with distilled water to prepare 10x compound solution. After mixing the compound solution with Probe 1 prepared with a binding reaction buffer (JH2 binding buffer), a reaction was performed at 25°C for 10 minutes. Next, the reaction was initiated by adding a TYK2 pseudokinase domain enzyme prepared with the binding reaction buffer. The reaction was performed in a black 384-well plate at 25 °C for 1 hour. Polarized fluorescence was measured using Synergy neo (BioTek Instruments, Inc.).

By UniProt entry, the sequences of proteins in these tests, tags left out. Residues count along the entry.
UniProt P29597, whole entry: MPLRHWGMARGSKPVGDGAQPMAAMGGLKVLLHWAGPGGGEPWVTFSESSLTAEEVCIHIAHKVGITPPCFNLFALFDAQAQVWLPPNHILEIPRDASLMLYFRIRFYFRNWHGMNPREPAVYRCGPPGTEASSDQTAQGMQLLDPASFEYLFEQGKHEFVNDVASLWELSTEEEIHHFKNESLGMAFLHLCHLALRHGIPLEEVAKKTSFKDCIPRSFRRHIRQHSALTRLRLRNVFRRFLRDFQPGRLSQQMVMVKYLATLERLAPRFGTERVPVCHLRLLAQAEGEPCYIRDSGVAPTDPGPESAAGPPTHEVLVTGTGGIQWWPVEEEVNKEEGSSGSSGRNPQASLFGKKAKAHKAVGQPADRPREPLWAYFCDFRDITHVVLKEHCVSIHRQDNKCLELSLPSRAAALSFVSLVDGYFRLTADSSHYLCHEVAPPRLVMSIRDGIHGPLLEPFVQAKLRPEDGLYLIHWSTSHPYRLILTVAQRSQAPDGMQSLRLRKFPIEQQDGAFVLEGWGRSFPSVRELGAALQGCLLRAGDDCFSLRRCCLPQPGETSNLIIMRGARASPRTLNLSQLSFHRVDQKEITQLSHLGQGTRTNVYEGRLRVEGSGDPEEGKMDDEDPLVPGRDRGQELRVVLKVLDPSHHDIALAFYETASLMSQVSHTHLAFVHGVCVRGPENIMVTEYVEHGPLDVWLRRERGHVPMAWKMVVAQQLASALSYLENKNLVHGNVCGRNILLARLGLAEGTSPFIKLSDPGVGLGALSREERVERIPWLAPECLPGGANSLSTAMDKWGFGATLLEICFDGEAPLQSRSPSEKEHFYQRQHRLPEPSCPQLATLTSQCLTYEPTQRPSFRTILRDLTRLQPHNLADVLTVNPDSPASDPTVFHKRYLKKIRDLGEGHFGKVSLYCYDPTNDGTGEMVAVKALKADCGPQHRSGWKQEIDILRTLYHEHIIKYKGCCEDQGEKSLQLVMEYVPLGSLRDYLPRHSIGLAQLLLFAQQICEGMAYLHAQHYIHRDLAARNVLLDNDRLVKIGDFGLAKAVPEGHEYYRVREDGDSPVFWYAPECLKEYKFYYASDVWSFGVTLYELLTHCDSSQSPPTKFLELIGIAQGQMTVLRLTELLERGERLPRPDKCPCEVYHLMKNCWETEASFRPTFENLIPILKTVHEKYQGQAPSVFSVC
UniProt P29597, 589-875 limits assumed: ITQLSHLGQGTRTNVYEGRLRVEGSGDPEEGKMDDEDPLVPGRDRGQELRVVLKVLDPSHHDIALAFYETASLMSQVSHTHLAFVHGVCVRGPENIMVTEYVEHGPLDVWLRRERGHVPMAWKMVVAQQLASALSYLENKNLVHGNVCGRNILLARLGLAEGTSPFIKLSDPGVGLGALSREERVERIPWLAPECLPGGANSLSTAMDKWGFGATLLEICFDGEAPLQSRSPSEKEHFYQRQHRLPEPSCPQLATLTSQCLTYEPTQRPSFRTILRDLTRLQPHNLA
UniProt P29597, 897-1176 limits assumed: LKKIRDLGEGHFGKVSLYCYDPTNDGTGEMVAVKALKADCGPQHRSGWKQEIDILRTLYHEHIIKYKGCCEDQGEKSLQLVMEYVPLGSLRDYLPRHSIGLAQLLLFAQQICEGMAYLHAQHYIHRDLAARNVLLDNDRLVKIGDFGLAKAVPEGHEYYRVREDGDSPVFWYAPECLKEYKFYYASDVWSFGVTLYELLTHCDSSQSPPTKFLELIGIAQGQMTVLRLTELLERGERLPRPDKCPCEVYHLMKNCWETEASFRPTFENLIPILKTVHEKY
UniProt P23458, whole entry partner: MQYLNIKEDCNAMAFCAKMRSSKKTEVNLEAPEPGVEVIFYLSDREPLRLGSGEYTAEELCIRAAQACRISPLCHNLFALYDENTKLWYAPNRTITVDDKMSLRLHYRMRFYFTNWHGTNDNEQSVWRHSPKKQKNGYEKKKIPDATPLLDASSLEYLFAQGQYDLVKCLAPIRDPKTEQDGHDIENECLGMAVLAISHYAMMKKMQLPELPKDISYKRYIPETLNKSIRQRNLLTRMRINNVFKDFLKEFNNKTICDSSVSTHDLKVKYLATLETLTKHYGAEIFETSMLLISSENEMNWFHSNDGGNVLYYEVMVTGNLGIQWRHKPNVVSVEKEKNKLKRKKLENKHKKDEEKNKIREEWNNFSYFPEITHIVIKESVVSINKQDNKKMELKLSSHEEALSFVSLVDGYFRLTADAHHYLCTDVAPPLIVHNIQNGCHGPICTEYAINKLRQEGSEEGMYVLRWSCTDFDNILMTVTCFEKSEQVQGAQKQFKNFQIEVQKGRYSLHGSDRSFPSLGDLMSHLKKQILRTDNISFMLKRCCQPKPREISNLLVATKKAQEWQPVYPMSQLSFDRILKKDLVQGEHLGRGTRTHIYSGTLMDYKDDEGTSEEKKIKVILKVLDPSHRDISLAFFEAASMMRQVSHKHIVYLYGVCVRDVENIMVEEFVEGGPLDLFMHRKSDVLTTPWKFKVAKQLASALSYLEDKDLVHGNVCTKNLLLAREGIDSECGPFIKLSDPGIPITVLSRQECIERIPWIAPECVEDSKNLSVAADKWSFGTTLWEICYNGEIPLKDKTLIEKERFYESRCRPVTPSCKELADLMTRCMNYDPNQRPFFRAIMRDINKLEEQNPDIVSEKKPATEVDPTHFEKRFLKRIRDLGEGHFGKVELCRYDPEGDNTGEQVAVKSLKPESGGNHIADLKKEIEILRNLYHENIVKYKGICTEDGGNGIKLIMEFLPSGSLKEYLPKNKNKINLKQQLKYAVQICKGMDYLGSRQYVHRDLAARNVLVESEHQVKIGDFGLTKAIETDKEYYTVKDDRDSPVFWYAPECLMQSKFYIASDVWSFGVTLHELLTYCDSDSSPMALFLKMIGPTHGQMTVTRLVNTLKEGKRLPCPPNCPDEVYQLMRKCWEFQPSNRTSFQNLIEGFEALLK
UniProt P23458, 875-1153 limits assumed: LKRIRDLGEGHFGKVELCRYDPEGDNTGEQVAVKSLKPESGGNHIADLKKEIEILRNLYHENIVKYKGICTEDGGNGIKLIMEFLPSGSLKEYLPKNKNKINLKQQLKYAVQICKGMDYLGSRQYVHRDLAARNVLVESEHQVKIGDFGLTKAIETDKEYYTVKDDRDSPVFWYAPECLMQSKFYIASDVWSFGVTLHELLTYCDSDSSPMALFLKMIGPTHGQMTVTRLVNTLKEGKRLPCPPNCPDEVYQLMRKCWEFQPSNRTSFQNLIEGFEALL
UniProt O60674, 849-1124 limits assumed: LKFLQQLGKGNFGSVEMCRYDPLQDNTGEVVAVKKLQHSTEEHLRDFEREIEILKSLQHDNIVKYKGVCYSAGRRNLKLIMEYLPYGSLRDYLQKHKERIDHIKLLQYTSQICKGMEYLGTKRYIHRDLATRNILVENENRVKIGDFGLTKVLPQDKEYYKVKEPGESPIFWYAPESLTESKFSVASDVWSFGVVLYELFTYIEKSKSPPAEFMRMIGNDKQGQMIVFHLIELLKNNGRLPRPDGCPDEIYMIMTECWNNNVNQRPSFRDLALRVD
UniProt P52333, 822-1111 limits assumed: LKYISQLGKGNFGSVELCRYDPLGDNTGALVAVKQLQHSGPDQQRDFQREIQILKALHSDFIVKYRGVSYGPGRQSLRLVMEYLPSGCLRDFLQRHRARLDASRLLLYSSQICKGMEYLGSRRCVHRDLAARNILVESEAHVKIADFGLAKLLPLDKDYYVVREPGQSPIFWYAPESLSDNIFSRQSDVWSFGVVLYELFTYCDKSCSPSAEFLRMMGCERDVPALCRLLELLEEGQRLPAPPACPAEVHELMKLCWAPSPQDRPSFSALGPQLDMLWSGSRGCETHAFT

JAK1 JH1 = JAK1 JH1 (Homo sapiens, UniProt P23458); assay: JAK kinase domain activity, ADP-Glo kinase assay, JAK1; details: read-out: JAK1 JH1 IC50, substrate IRS1 (Y608) peptide, top concentration 10000 nM
Experimental: (§1) Experimental Example 2: JAK Kinase Domain Activity Analysis
(§2) Kinase domain activity of the JAK family was analyzed using the ADP-Glo kinase assay kit (Promega). The evaluation of the compound was performed according to the manufacturer's protocol, and the method thereof is as follows:
(§3) A 10 mM test compound was diluted to 0.5 mM using DMSO in a 96-well plate, and then 5-fold serial dilutions were performed in DMSO. The diluted compound was diluted to 1/10 with 1x reaction buffer (composition) to prepare a 5x compound solution. 5 uL of the 5x compound solution was mixed with a substrate prepared in the reaction buffer (40 mM Tris, 20 mM MgCl2 and 0.1 mg/ml BSA, 0.05 mM DTT, pH 7.5), and an ATP mixture (10 uL). Next, an enzyme reaction was initiated by adding the JAK family enzyme (10 uL) prepared in the reaction buffer. A short rotation was performed to settle all the solution to the bottom of the plate. The final concentrations of the test compounds in the reaction mixture were 10000, 2000, 400, 80, 16, and 3.2 nM. The concentrations of the control compounds (Brepocitinib or Tofacitinib) were 10 times lower. The enzyme reaction was performed at 25°C for 1 hour. 25 uL of ADP-Glo reagent was added and the reaction was performed at 25 °C for 1 hour. The reaction mixed 50 uL of kinase detection reagent and was stopped, and a luminescence signal was measured using Synergy neo (BioTek Instruments, Inc.). […]

JAK2 JH1 = JAK2 JH1 (Homo sapiens, UniProt O60674); assay: JAK kinase domain activity, ADP-Glo kinase assay, JAK2; details: read-out: JAK2 JH1 IC50, substrate IGF1R peptide, top concentration 10000 nM
Experimental: as §1, §2, §3

JAK3 JH1 = JAK3 JH1 (Homo sapiens, UniProt P52333); assay: JAK kinase domain activity, ADP-Glo kinase assay, JAK3; details: read-out: JAK3 JH1 IC50, substrate Poly (4:1 Glu-Tyr) peptide, top concentration 10000 nM
Experimental: as §1, §2, §3

TYK2 JH1 = TYK2 JH1 (Homo sapiens, UniProt P29597); assay: JAK kinase domain activity, ADP-Glo kinase assay, TYK2; details: read-out: TYK2 JH1 IC50, substrate IRS1 (Y608) peptide, top concentration 10000 nM
Experimental: as §1, §2, §3

TYK2/JAK1 = TYK2/JAK1 (Homo sapiens, UniProt P29597); assay: TYK2/JAK1 cell activity by IFNα2B stimulation, SEAP reporter in HEK-blue IFNα/β cells; details: HEK-blue IFNα/β cell line, human IFNα2B 1 U/mL, 24 hours, SEAP absorbance at 630 nm
Experimental: Experimental Example 3: Analysis of TYK2/JAKI cell activity by IFNα2B stimulation
An inhibition effect of TYK2/JAK1 activity of the test compound was analyzed using HEK-blue IFNα/β cell line (InvivoGen) that secretes SEAP (Secreted embryonic alkaline phosphatase) depending on the degree of cell stimulation. Cell culture and evaluation were performed according to the manufacturer's recommendations, and the method thereof is as follows: Cells cultured in a growth medium (Dulbecco's Modified Eagle Medium, 10% Fetal bovine serum, 1% Penicillin-Streptomycin, 100 ug/mL Normocin, 10 mg/mL Blasticidin, […] Zeocin) were collected and resuspended in a test medium (DMEM, 10% FBS, 1% Penicillin-Streptomycin), and 3.5x10^4 cells (160 uL) were dispensed into each well of a 96-well plate. After culturing for 24 hours in a 37°C CO2 incubator, 20 uL of a test compound or control compound (Deucravacitinib) diluted in the test medium was added, and then incubated at 37°C for 1 hour and 30 minutes. Next, 20 uL of human IFNα2B recombinant protein (PBL assay science) prepared with the test medium was added to each well (final concentration 1 U/mL) and then incubated at 37°C for 24 hours. 20 uL and 180 uL of cell supernatant were mixed with a QUANTI-blue reagent (InvivoGen) and then reacted at 37°C for 20-30 minutes. An absorbance at 630 nm was measured using Synergy neo (BioTek Instruments, Inc.). […] [Table 3] Result of TYK2/JAK1 cell activity by IFNα2B stimulation test

SMILES	IC50 (TYK2 pseudokinase domain)	IC50 (JAK1 JH1)	IC50 (JAK2 JH1)	IC50 (JAK3 JH1)	IC50 (TYK2 JH1)	IC50 (TYK2/JAK1)
CC(=O)Nc1cc2c(-c3cc(OCC(C)(F)F)c(=O)n([C@@H](C)C(F)(F)F)n3)cn(C3CC4(COC4)C3)c2cn1	20 nM	> 10000 nM	> 10000 nM	> 10000 nM	> 10000 nM	< 50 nM
CCn1cc(-c2cc(OCC(C)(C)F)c(=O)n([C@@H](C)C(F)(F)F)n2)c2cc(NC(C)=O)ncc21	57 nM	> 10000 nM	6140 nM	> 10000 nM	> 10000 nM	< 50 nM
CC(=O)Nc1cc2c(-c3cc(OCC(C)(F)F)c(=O)n([C@@H](C)C(F)(F)F)n3)cn(C3CC3)c2cn1	11 nM	7740 nM	7450 nM	> 10000 nM	> 10000 nM	< 50 nM
CC(C)COc1cc(-c2cn(C3CCC3)c3cnc(NC(N)=O)cc23)nn(C(C)C)c1=O	26 nM	> 10000 nM	9150 nM	> 10000 nM	> 10000 nM	< 50 nM
[2H]C([2H])([2H])n1cc(-c2cc(OCC(C)(F)F)c(=O)n([C@@H](C)C(F)(F)F)n2)c2cc(NC(C)=O)ncc21	32 nM	3000 nM	1090 nM	> 10000 nM	7560 nM	< 50 nM
COC1CN(c2cc(-c3cn(C)c4cnc(NC(C)=O)cc34)nn([C@@H](C)C(F)(F)F)c2=O)C1	26 nM	9360 nM	2020 nM	> 10000 nM	> 10000 nM	< 50 nM
COC1CN(c2cc(-c3cn(CC4CC4)c4cnc(NC(C)=O)cc34)nn([C@@H](C)C(F)(F)F)c2=O)C1	68 nM	> 10000 nM	> 10000 nM	> 10000 nM	> 10000 nM	< 50 nM
CC(=O)Nc1cc2c(-c3cc(OCC(C)(C)F)c(=O)n([C@@H](C)C(F)(F)F)n3)cn(C)c2cn1	45 nM	3110 nM	1110 nM	> 10000 nM	> 10000 nM	< 50 nM

The remaining molecules from weak to strong by IC50 (TYK2 pseudokinase domain), led by results:

IC50 (TYK2 pseudokinase domain)	IC50 (JAK1 JH1)	IC50 (JAK2 JH1)	IC50 (JAK3 JH1)	IC50 (TYK2 JH1)	IC50 (TYK2/JAK1)	SMILES
358 nM	> 10000 nM	> 10000 nM	> 10000 nM	> 10000 nM	> 500 nM	CC(=O)Nc1cc2c(-c3cc(OCC(F)F)c(=O)n([C@H](C)C(F)(F)F)n3)cn(C3CC3)c2cn1
79 nM	> 10000 nM	> 10000 nM	> 10000 nM	> 10000 nM	< 50 nM	CCn1cc(-c2cc(N3CC(OC)C3)c(=O)n([C@@H](C)C(F)(F)F)n2)c2cc(NC(C)=O)ncc21
44 nM	4350 nM	1640 nM	> 10000 nM	> 10000 nM	< 50 nM	CC(=O)Nc1cc2c(-c3cc(OCC(F)(F)F)c(=O)n([C@@H](C)C(F)(F)F)n3)cn(C)c2cn1
35 nM	> 10000 nM	> 10000 nM	> 10000 nM	> 10000 nM	< 50 nM	COC1CN(c2cc(-c3cn(C4CC4)c4cnc(NC(C)=O)cc34)nn([C@@H](C)C(F)(F)F)c2=O)C1
21 nM	7470 nM	2190 nM	3990 nM	> 10000 nM	< 50 nM	COC1CN(c2cc(-c3cn(C)c4cnc(NC(N)=O)cc34)nn(C3(C)CCOC3)c2=O)C1 (stereo not drawn)
20 nM	> 10000 nM	> 10000 nM	> 10000 nM	> 10000 nM	< 50 nM	CCCn1cc(-c2cc(OCC(C)(F)F)c(=O)n([C@@H](C)C(F)(F)F)n2)c2cc(NC(C)=O)ncc21
19 nM	1650 nM	597 nM	> 10000 nM	4060 nM	50 to 500 nM	CC(=O)Nc1cc2c(-c3cc(OCC(C)C)c(=O)n(C(C)C)n3)cn(C)c2cn1
15 nM	2360 nM	1040 nM	> 10000 nM	5060 nM	< 50 nM	CC(=O)Nc1cc2c(-c3cc(OCC(C)C)c(=O)n(C4(C)CCC4)n3)cn(C)c2cn1

From patent EP4831173A1, “TYK2 INHIBITOR AND USE THEROF” (dated 2026)
